The text below walks through data of US20240139189A1, “N6-ADENOSINE-[…] INHIBITORS IN CANCER TREATMENT” (priority 2021, published 2024).

Amino acid sequences for entries named in this document (tags omitted).
UniProt Q86U44, whole entry: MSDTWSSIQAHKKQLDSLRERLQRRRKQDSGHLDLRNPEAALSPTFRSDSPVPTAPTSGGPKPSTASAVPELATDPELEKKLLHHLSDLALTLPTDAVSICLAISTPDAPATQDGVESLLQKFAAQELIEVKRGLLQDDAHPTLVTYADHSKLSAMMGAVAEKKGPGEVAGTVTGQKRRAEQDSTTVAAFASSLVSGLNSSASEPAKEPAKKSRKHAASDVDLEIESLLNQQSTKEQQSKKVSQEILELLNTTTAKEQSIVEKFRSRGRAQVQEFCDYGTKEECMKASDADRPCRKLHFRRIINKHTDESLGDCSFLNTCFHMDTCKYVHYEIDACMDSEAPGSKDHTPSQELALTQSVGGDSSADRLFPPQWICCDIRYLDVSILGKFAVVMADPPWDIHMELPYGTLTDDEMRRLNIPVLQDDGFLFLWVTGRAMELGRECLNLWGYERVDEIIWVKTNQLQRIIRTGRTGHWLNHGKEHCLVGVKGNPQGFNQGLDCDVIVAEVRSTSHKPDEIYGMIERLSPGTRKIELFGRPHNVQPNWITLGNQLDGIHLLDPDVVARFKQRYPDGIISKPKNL
UniProt Q9HCE5, whole entry partner: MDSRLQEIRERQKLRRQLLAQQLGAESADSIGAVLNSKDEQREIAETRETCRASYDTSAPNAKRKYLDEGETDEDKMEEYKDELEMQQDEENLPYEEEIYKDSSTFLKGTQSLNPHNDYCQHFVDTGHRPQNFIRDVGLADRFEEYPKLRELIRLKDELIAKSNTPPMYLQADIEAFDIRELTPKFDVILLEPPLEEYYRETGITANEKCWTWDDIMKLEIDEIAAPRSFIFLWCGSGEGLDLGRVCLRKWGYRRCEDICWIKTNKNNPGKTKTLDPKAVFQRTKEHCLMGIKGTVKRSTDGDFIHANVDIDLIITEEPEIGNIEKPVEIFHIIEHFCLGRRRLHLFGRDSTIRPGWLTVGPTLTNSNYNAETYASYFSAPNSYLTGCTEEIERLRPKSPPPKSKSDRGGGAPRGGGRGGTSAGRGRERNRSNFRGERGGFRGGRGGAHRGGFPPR

The data set addresses METTL3 (Homo sapiens (Human), UniProt Q86U44). As to the kind of experiment: TR-FRET biochemical assay (time resolved-Förster resonance energy transfer). As to conditions: for LLE (lipophilic ligand efficiency, pIC50-logP): calculated with DataWarrior.

Turning to `CNc1cc(N2CCC(O)(CNc3ccc(CN4CCC(C)(C)CC4)cc3)CC2)ncn1`, the LLE (lipophilic ligand efficiency, pIC50-logP) is 2.5.
`CNc1cc(N2CCC3(CC2)CN(c2ccc(CN4CCC(C)(C)CC4)cc2)CC(=O)N3C)ncn1`: the “LE (ligand efficiency)” value is on record as 0.22 kcal.mol^-1.heavy atom count^-1 and the LLE (lipophilic ligand efficiency, pIC50-logP) is 3. Further, for the setting “relative to parent compound”, the “potency reduction / loss” value was determined as 19 fold.
For `CNc1cc(N2CCC(O)(CNc3ccc(CN4CCC(C)(C)CC4)nc3)CC2)ncn1`, the LLE (lipophilic ligand efficiency, pIC50-logP) is 3.4.
On to `CNc1cc(N2CCC(O)(CNc3ccc(CN4CCC(C)(C)CC4)cn3)CC2)ncn1`, for which the LLE (lipophilic ligand efficiency, pIC50-logP) was 3.2.
